{"source": "patent US5587373A", "about": "“2-acyloxycephem derivatives” (Farmitalia Carlo Erba S.r.l., priority 1993, dated 1996)", "biological_target": "T1, human leucocyte elastase (HLE) (Homo sapiens, UniProt P08246)", "T1 construct": "purchased Calbiochem", "T1 sequence (P08246 30-267)": "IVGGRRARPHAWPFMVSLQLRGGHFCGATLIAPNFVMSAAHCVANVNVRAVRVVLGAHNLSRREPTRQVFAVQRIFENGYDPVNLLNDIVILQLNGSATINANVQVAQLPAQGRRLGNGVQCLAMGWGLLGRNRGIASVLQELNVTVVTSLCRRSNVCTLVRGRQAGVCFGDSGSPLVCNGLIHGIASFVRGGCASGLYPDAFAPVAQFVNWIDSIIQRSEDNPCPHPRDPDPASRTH", "assay": "HLE (human leucocyte elastase) inhibition kinetics", "type": "biochemical", "details": "Table 2; rate of formation of the HLE-inhibitor complex; 37° C., pH 7.4; read-out: \"Efficacy\" K5 /Ki", "source_text": "Vs =steady state rate Vz =zero time rate Vo =rate at [I]=0 Km =Michaelis constant for the enzyme substrate pair (independently determined under the same experimental conditions). Full details of the Experimental Protocol are reported in […] et al., Eur. J. Med. Chem. 1992, 27, 875-890."}
{"smiles": "CO[C@H]1C(=O)N2C(C(=O)C(C)(C)C)=C(C)C(OC(=O)c3ccccc3)S(=O)(=O)[C@H]12", "note": "(stereo partly drawn) [Compound 2, 2-Benzoyloxy-4-tert-butylcarbonyl-7α-methoxy-3-methyl-3-cephem 1,1-dioxide]", "values": [{"measurement": "kinact/KI", "result": "1.5e+06", "unit": "M⁻¹ s⁻¹"}]}
